Values quoted from earlier work, collected in patent publication US7247438B1, “Methods of identifying agents which enhance caspase activity” (priority 1997, dated 2007).

Target: T1, caspase-3 (Homo sapiens, UniProt P42574)
T1 sequence (P42574 29-175 limits assumed): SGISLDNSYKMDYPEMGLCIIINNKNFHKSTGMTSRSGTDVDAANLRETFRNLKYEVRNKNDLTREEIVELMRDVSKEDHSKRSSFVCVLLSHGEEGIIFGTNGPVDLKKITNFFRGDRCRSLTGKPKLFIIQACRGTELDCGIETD
T1 sequence (P42574 176-277 limits assumed): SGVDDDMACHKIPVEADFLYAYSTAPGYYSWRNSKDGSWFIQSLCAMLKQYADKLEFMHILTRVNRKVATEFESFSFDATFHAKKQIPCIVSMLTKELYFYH
Conditions: caspase-3 versus caspase-1; cited from earlier work

For `CC(=O)N[C@@H](CC(=O)O)C(=O)N[C@@H](CCC(=O)O)C(=O)N[C@H](C(=O)N[C@H](C=O)CC(=O)O)C(C)C` [Ac-DEVD-CHO], the “times better inhibition of caspase-3 than caspase-1” value is listed as 49 times.
